Earlier results as cited in US8450097B2, “Protein-proteophore complexes” (Ascendis Pharma GmbH, priority 2003, dated 2013).

Details: rats; for half-life t½ in circulation: PEGylated interferons

| Substance | half-life t½ in circulation | time within which cleared (unconjugated protein) |
| --- | --- | --- |
| dipegylated with 2×20 kDa PEG: PEGylated interferon alfa-2a, dipegylated with 2×20 kDa PEG | 23 h |  |
| interferon alfa-2a |  | ≤ 2.5 h |
| linear 5 kDa PEG monoconjugate: PEGylated interferon alfa-2a, linear 5 kDa PEG monoconjugate | 3.4 h |  |
